System: nicotine-induced antinociception
Assay: Blockade of nicotine-induced antinociception, tail-flick test
Format: in vivo
Conditions: mice
Method: Anitinociception. The tail-flick method of D'Amour and Smith (1941) as modified by Dewey et al. (1970) was used. A control response (2-4 s) was determined for each animal before treatment, and a test latency was determined after drug administration. To minimize tissue damage, a maximum latency of 10 s was imposed. Antinociceptive response was calculated as percent maximum possible effect (% MPE), where % MPE=[((test-control)/(10-control))×100], Groups of 8 to 12 animals were used for each dose and for each treatment. Mice were tested 5 min after nicotine administration for the dose-response evaluation. Antagonism studies were carried out by pretreating the mice s.c. with either saline or various drugs at different times before nicotine. The animals were tested 5 min after administration of nicotine.
Data were analyzed statistically by an analysis of variance followed by the Fisher's P least-significant difference multiple comparison test. The null hypothesis was rejected at the […]. ED50, EC50, and AD50 (antagonist dose 50%) values with 95% CLs were calculated by unweighted least-squares linear regression as described by Tallarida and Murray (1987).

Compound: COC(=O)[C@@H]1[C@@H](c2ccc(I)cc2)C[C@@H]2CC[C@H]1N2C
- AD50 Tail-Flick (blocking antinociception of nicotine 2.5 mg/kg, systemic administration): 19.1 μmol/hg
- Relative potency in blocking nicotine's antinociceptive effect (in words, comparator in the value) (tail-flick): much less potent than cocaine

Reference: patent US6479509B1, “Method of promoting smoking cessation” (priority 2000, dated 2002)
